Assay results: patent US20030181447A1, “3-(Diarylmethylene)-8-azabicyclo[3.2.1]octane derivatives” (priority 2001, published 2003)

Molecular target: δ-opioid receptor (Rattus norvegicus, UniProt P33533)

Q: With C=C(C)CN(CC)C(=O)c1ccc(C(=C2CC3CCC(C2)N3CCc2ccccc2)c2ccccc2)cc1 as the compound, how does the Ki read?
A: Its Ki is 2.9 nM.

Q: For CC(C)N(C(=O)c1ccc(C(=C2CC3CCC(C2)N3CCc2ccccc2)c2ccccc2)cc1)C(C)C, which Ki is on record?
A: The Ki was 49 nM.

Q: For CN(C)CCCNC(=O)c1ccc(C(=C2CC3CCC(C2)N3CCc2ccccc2)c2ccccc2)cc1, which Ki is on record?
A: Its Ki is 404 nM.

Q: For O=C(NCCc1cnc[nH]1)c1ccc(C(=C2CC3CCC(C2)N3CCc2ccccc2)c2ccccc2)cc1, which Ki is on record?
A: The Ki was 178 nM.
